Data published in US20250276034A1, “RELEASE-CONTROLLED TOPICAL INJECTION COMPOSITION CONTAINING CYCLIC PEPTIDE AND PREPARATION METHOD THEREFOR” (ORIENTBIO INC., priority 2021, published 2025).

Assay: In-vitro release test using rat plasma as release medium (HPLC)
Type: physicochemical
Settings: 37° C.
Protocol: Delayed drug release depends on the time for PLGA to degrade. When PBS with tween 80 0.2% (pH: 7.4), commonly used in in-vitro drug release testing, is used as a release medium, no drug is released for a minimum of two weeks and a maximum of four weeks. This is different from in-vivo release results.
Accordingly, an in-vitro release test was conducted using rat plasma as a release medium to mimic in-vivo conditions and to establish an optimal in vitro-in vivo correlation (IV-IVC). As the rat plasma, a supernatant obtained by dispensing blood from rats into heparinized tubes, followed by centrifugation in a centrifuge at 3,000 rpm for 10 minutes, was used. […] Then, sampling was performed hourly, followed by analysis by HPLC to measure the quantity of drug released. The HPLC analysis method is as follows.
After a vial to be sampled was vortexed for 30 seconds, each 100 μl sample was dispensed from the vial, followed by centrifugation at 13,000 rpm for 30 minutes. Thereafter, 90 μl of the separated supernatant was dispensed, followed by addition of 270 μl of ACN (Sample A). To the remaining pellets, 360 μl of 75% ACN was added (Sample B). Then, Samples A and B were subjected to sonication for 3 minutes, followed centrifugation at 13,000 rpm for 30 minutes. Theater, 300 μl of the separated supernatant of Samples A and B was dispensed and filtered through a 0.22 μm syringe filter, followed by analysis by HPLC.
For “[D-2-(4-Methylbenzenethio)-Sar^3]Cyclosporine a”, the “drug release profile / initial burst” value was “good drug release profile as a sustained-release formulation without an initial burst”.
In the case of [N-Methyl-D-Abu^3]Cyclosporine A, the “drug release profile / initial burst” value is reported as “good drug release profile as a sustained-release formulation without an initial burst”.
With “[N-Methyl-D-Ala^3]Cyclosporine A [[D-MeAla^3]cyclosporine A]” the “drug release profile / initial burst” value was “good drug release profile as a sustained-release formulation without an initial burst”.
With “[N-Methyl-D-Norval^3]Cyclosporine A [[N-methyl-D-Nva^3]cyclosporine A]” the “drug release profile / initial burst” value was “good drug release profile as a sustained-release formulation without an initial burst”.
